Experimental data reported in ChEMBL document CHEMBL6087459 (J Med Chem, 2025).

Test system: HCT-8
Conditions: human

CCc1nn(C)c2nc(-c3ccc4c(c3)COB4O)nc(NCc3ccc(F)cc3)c12
CC50: > 100 µM
